CycPeptMPDB entries from one study

Source: CycPeptMPDB (Li et al. 2023), which took these values from Kelly et al. 2021, doi:10.1021/jacs.0c06115.

PAMPA is the parallel artificial membrane permeability assay, which has no cells and reads passive diffusion.
Permeability is in 10^-6 cm/s, converted from the database's log10 values; higher is more permeable.

| structure (SMILES) | PAMPA (10^-6 cm/s) |
|---|---|
| CC(=O)N1CCC[C@H]1C(=O)N(C)[C@H](CC(C)C)C(=O)N[C@@H]1C(=O)N(C)[C@@H](CC(C)C)C(=O)N(C)[C@H](CC(C)C)C(=O)N(C)[C@@H](CC(C)C)C(=O)N(C)[C@@H](C)C(=O)N[C@@H](CC(C)C)C(=O)N2CCC[C@@H]2C(=O)O[C@@H]1C | 5.1 |
| CC(=O)N1CCC[C@H]1C(=O)N(C)[C@@H](CC(C)C)C(=O)N[C@@H]1C(=O)N(C)[C@@H](CC(C)C)C(=O)N[C@H](CC(C)C)C(=O)N(C)[C@@H](CC(C)C)C(=O)N(C)[C@H](C)C(=O)N[C@H](CC(C)C)C(=O)N2CCC[C@@H]2C(=O)O[C@@H]1C | 4 |
| CC(=O)N1CCC[C@H]1C(=O)N(C)[C@@H](CC(C)C)C(=O)N[C@@H]1C(=O)N(C)[C@H](CC(C)C)C(=O)N[C@H](CC(C)C)C(=O)N[C@@H](CC(C)C)C(=O)N(C)[C@@H](C)C(=O)N[C@H](CC(C)C)C(=O)N2CCC[C@@H]2C(=O)O[C@@H]1C | 0.24 |
| CC(=O)N1CCC[C@@H]1C(=O)N(C)[C@H](CC(C)C)C(=O)N[C@@H]1C(=O)N[C@@H](CC(C)C)C(=O)N[C@H](CC(C)C)C(=O)N[C@H](CC(C)C)C(=O)N(C)[C@@H](C)C(=O)N[C@H](CC(C)C)C(=O)N2CCC[C@H]2C(=O)O[C@@H]1C | 0.078 |
| CC(=O)N1CCC[C@H]1C(=O)N(C)[C@H](CC(C)C)C(=O)N[C@@H]1C(=O)N(C)[C@@H](CC(C)C)C(=O)N(C)[C@@H](CC(C)C)C(=O)N[C@H](CC(C)C)C(=O)N(C)[C@H](C)C(=O)N[C@H](CC(C)C)C(=O)N2CCC[C@@H]2C(=O)O[C@@H]1C | 1.9 |
| CC(=O)N1CCC[C@H]1C(=O)N[C@@H]1C(=O)N(C)[C@H](CC(C)C)C(=O)N[C@H](CC(C)C)C(=O)N(C)[C@@H](CC(C)C)C(=O)N[C@H](CC(C)C)C(=O)N(C)[C@H](C)C(=O)N[C@@H](CC(C)C)C(=O)N2CCC[C@@H]2C(=O)O[C@@H]1C | 3 |
| CC(=O)N1CCC[C@H]1C(=O)N[C@@H]1C(=O)N[C@H](CC(C)C)C(=O)N(C)[C@H](CC(C)C)C(=O)N[C@H](CC(C)C)C(=O)N(C)[C@H](CC(C)C)C(=O)N[C@H](C)C(=O)N[C@@H](CC(C)C)C(=O)N2CCC[C@@H]2C(=O)O[C@@H]1C | 2.1 |
| CC(=O)N1CCC[C@H]1C(=O)N(C)[C@H](CC(C)C)C(=O)N[C@@H]1C(=O)N(C)[C@H](CC(C)C)C(=O)N(C)[C@@H](CC(C)C)C(=O)N(C)[C@H](CC(C)C)C(=O)N[C@H](C)C(=O)N[C@H](CC(C)C)C(=O)N2CCC[C@H]2C(=O)O[C@@H]1C | 5.2 |
| CC(=O)N1CCC[C@@H]1C(=O)N(C)[C@H](CC(C)C)C(=O)N[C@@H]1C(=O)N(C)[C@@H](CC(C)C)C(=O)N(C)[C@H](CC(C)C)C(=O)N(C)[C@@H](CC(C)C)C(=O)N(C)[C@@H](C)C(=O)N[C@H](CC(C)C)C(=O)N2CCC[C@@H]2C(=O)O[C@@H]1C | 6 |
| CC(=O)N[C@@H]1C(=O)N2CCC[C@H]2C(=O)N(C)[C@H](CC(C)C)C(=O)N[C@H](CC(C)C)C(=O)N[C@H](CC(C)C)C(=O)N(C)[C@@H](CC(C)C)C(=O)N(C)[C@@H](C)C(=O)N[C@@H](CC(C)C)C(=O)N2CCC[C@@H]2C(=O)O[C@@H]1C | 0.58 |
| CC(=O)N1CCC[C@@H]1C(=O)N(C)[C@H](CC(C)C)C(=O)N[C@@H]1C(=O)N[C@@H](CC(C)C)C(=O)N[C@H](CC(C)C)C(=O)N(C)[C@@H](CC(C)C)C(=O)N(C)[C@@H](C)C(=O)N[C@H](CC(C)C)C(=O)N2CCC[C@H]2C(=O)O[C@@H]1C | 2.5 |
| CC(=O)N1CCC[C@@H]1C(=O)N(C)[C@@H](CC(C)C)C(=O)N[C@@H]1C(=O)N[C@H](CC(C)C)C(=O)N[C@@H](CC(C)C)C(=O)N(C)[C@H](CC(C)C)C(=O)N(C)[C@@H](C)C(=O)N[C@@H](CC(C)C)C(=O)N2CCC[C@@H]2C(=O)O[C@@H]1C | 5.2 |
| CC(=O)N1CCC[C@H]1C(=O)N[C@@H]1C(=O)N[C@H](CC(C)C)C(=O)N(C)[C@@H](CC(C)C)C(=O)N(C)[C@@H](CC(C)C)C(=O)N[C@@H](CC(C)C)C(=O)N(C)[C@H](C)C(=O)N[C@@H](CC(C)C)C(=O)N2CCC[C@@H]2C(=O)O[C@@H]1C | 2.7 |
| CC(=O)N1CCC[C@@H]1C(=O)N(C)[C@@H](CC(C)C)C(=O)N[C@@H]1C(=O)N[C@H](CC(C)C)C(=O)N[C@@H](CC(C)C)C(=O)N[C@H](CC(C)C)C(=O)N[C@H](C)C(=O)N[C@H](CC(C)C)C(=O)N2CCC[C@@H]2C(=O)O[C@@H]1C | 0.22 |

A selection of 2 entries from above:

| structure (SMILES) | PAMPA (10^-6 cm/s) |
|---|---|
| CC(=O)N1CCC[C@@H]1C(=O)N(C)[C@@H](CC(C)C)C(=O)N[C@@H]1C(=O)N[C@H](CC(C)C)C(=O)N[C@@H](CC(C)C)C(=O)N(C)[C@H](CC(C)C)C(=O)N(C)[C@@H](C)C(=O)N[C@@H](CC(C)C)C(=O)N2CCC[C@@H]2C(=O)O[C@@H]1C | 5.2 |
| CC(=O)N1CCC[C@H]1C(=O)N[C@@H]1C(=O)N[C@H](CC(C)C)C(=O)N(C)[C@H](CC(C)C)C(=O)N[C@H](CC(C)C)C(=O)N(C)[C@H](CC(C)C)C(=O)N[C@H](C)C(=O)N[C@@H](CC(C)C)C(=O)N2CCC[C@@H]2C(=O)O[C@@H]1C | 2.1 |

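The data file gives no further conditions (lipid, pH, time, direction or concentration), and values from different papers need not be comparable. The list need not hold all peptides of the study. Peptides that the database sets to -10, its floor, are left out.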